System: OCT1, OCT2, OCT3, MATE1 and MATE2K
Settings: oxaliplatin 20 μM in protein-free HBSS or 100% human serum

## O=C(O)C(=O)O.[NH-][C@@H]1CCCC[C@H]1[NH-].[Pt+2] [Oxaliplatin]
  transportability by transporters: confirmed the transportability of oxaliplatin by transporters including OCT1, OCT2. OCT3 and MATE1 and MATE2K
